2 substances from patent US6906033 can be followed below.

The term Ki denotes a dissociation constant, usually derived from enzyme kinetics or from competition with a known ligand.

Assay [1] deals with human factor XIIa (human) (UniProt P00748). Kind of assay: enzyme inhibition.
The target of assay [2] is human plasma kallikrein (human) (UniProt P03952). Kind of assay: enzyme inhibition.

On to Aprotinin, for which the Ki in assay [1] stood at 5000 nM; in assay [2], 20 nM.
For Aprotinin R15, S42, the results for the Ki in assay [1] and in assay [2] were 3980 nM and 0.91 nM, respectively.
